Results on one compound are retold here after ChEMBL document CHEMBL4402597, “Truncated (N)-Methanocarba Nucleosides as Partial Agonists at Mouse and Human A3 Adenosine Receptors: Affinity Enhancement by N6-(2-Phenylethyl) Substitution” (J Med Chem, 2020).

By UniProt entry, the sequences of proteins in these tests, tags left out.
UniProt P0DMS8, whole entry: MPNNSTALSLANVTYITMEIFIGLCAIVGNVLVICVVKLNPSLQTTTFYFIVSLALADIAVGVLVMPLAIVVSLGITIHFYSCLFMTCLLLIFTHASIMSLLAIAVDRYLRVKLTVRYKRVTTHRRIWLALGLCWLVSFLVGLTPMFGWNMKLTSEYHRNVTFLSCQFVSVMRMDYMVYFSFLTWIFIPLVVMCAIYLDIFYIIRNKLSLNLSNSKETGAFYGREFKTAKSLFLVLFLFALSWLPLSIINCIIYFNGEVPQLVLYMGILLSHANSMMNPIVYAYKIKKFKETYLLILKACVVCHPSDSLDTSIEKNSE

The target in the assay is Adenosine receptor A3 (Homo sapiens, UniProt P0DMS8). In words: Partial agonist activity at recombinant human A3AR expressed in HEK293 cells assessed as inhibition of forskolin-stimulated cAMP accumulation by measuring residual cAMP level measured after 30 mins in presence of A2BAR blocker PSB-603 by Glo-sensor assay relative to control. Type of assay: functional, cell-based.

Consider `CNC(=O)[C@H]1O[C@@H](n2cnc3c(NCc4cccc(I)c4)nc(Cl)nc32)[C@H](O)[C@@H]1O`, for which the Emax was 31.7%.
